## Antibody variant affinities, Ab-14 light chain, assay B

Binding partner: SARS-CoV-2 spike HR2 peptide, sequence PDVDLGDISGINAS.

The variants keep the heavy chain, the linker and the frameworks of Ab-14 (scFv order VH, the linker GGGGSGGGGSGGGGS, VL).
VH: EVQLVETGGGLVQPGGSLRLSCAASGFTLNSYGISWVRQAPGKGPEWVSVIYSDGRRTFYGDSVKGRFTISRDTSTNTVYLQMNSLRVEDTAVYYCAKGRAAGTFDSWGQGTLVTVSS
VL: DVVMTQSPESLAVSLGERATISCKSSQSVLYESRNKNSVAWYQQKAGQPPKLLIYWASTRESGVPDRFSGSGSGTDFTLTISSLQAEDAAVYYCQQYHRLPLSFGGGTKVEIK

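Phage display of a naive human antibody library on the peptide gave the parent. Designed CDR sequences, proposed from the first random library and measured here. Group labels follow the data file (Ctrl: baseline library sampled from a position-specific scoring matrix, with some repeated check sequences; En: ensemble of fine-tuned language models; GP: Gaussian process model; HC: hill climbing; Gen: genetic algorithm; Gibbs: Gibbs sampling; a sequence that several methods proposed may carry one label only). The assay is AlphaSeq: two haploid yeast populations carry antibody and antigen on their surface. After mating in shaken culture at 30 °C for 16 h, diploids were selected and their barcode pairs sequenced. A regression on co-assayed BCL2-family reference pairs converts the normalised counts of each replicate to an apparent Kd. Each pool was mated in six replicate cultures.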

Variants are written as CDR1, CDR2 and CDR3 of the light chain (limits as in the source). Parent: KSSQSVLYESRNKNSVA, WASTRES, QQYHRLPLS. Numbers give log10(Kd / nM), so 0 is 1 nM and 3 is 1 µM. Smaller is tighter. A mean of the replicates is given; it leaves out those without a signal. An entry "no signal" has no value in the source: the pair was not observed among the diploids in any replicate. This suggests poor binding but is not conclusive. The range of this assay differs from that of the first round, and the authors advise against merging the two.

CDR-L1 | CDR-L2 | CDR-L3 | group | log10 Kd (nM), mean | replicates with signal
KISGYLNKEMKNKNSVA | EMVNRES | QQYDRLPLS | En_HC | 2.20 | 5 of 6
KSSISYLGEMRNKNSVA | EASTRES | QQYHRLPLS | GP_HC | 0.67 | 6 of 6
KSSQSVLYQSRNKNSVA | WASTREY | QQYHRLPLS | Ctrl | no signal | 0 of 6
KLEQSVLVESRNKNSVA | NASTRES | QQYHRLPLS | GP_Gen | -0.19 | 6 of 6
MLSEFMHMLGAKKNSIA | DLVVRAN | QQYHRLPLI | En_Gen | 2.06 | 5 of 6
KFSMSEDYESRNSNSVA | NAQTRLS | QQYHRLPLS | GP_Gibbs | 0.05 | 6 of 6
HLSWVSLYESRNKNSVA | NASTRES | QQYHRLPLS | GP_HC | 0.10 | 6 of 6
KISQSIMFSSGMKNAIA | QMEMREE | QQYHRLPLS | En_HC | 0.54 | 6 of 6
TISQSAHMESHNKNSVA | DLNLRGS | QQYDRLPLS | En_HC | 0.79 | 6 of 6
KWSQSWLYESRNKNSVA | NASQRES | QQYHRLPLS | GP_Gen | 0.48 | 6 of 6
KISQSVLYESRNKNAVA | NASTRMS | QQYHRLPLS | GP_Gen | 0.05 | 6 of 6
RVSQSFLYEARPVNSVA | WASTRES | LQYHRLPLS | Ctrl | no signal | 0 of 6
KSSQSVLYESRNKNEVA | QASTRES | QQYHRLPLS | Ctrl | 2.44 | 5 of 6
KSSQSVLYESLNKTSVA | WGSTRES | QQYHRLPLS | Ctrl | 1.88 | 6 of 6
KFEQSVLYESRNKNSVA | NASTRMS | QQYHRLPLS | GP_Gen | -0.06 | 6 of 6
KLQQSVEYQARNQNSVA | SASTRLH | QQYHRLPLS | GP_Gibbs | 0.20 | 6 of 6
MLWQQMEGFNLHKDAIA | NAKERTG | QQYGRLPLS | En_Gibbs | 1.71 | 5 of 6
MISEVMETLTRHGNNVA | DLAERED | QQYFRLPLS | En_Gen | 1.28 | 6 of 6
KLSQSDLYESRNKNSVA | EASTRMS | QQYHRLPLS | GP_Gen | -0.07 | 6 of 6
KTGQGVLYESRNKNSVA | GASLRES | QQYHRLPLS | GP_HC | -0.02 | 6 of 6
HITMGTYVSGRHHSNIA | QAETRAK | QQYDRLPLI | En_Gen | 1.81 | 6 of 6
KSSQSVYYESVDKNSVA | WASTRES | QQYHGLPLS | Ctrl | 2.39 | 6 of 6
KLEQSQNYESRNQNSVA | NASTRES | QQYHRLPLS | GP_HC | 0.11 | 6 of 6
KLSGIMRLEQKVSNSIA | EMATRGS | QQYDRLPLS | En_Gen | 1.29 | 6 of 6
GLSQSVEQLERNKNSVA | HASQREV | QQYHRLPLS | GP_Gibbs | -0.13 | 6 of 6
KFPQSVLYESRNKNSVA | EASTRES | QQYHRLPLS | GP_Gen | -0.52 | 6 of 6
KSSPSYLGESRNKNSVA | EASTRES | QQYHRLPLS | GP_HC | -0.18 | 6 of 6
KLSISALHESIDKKSIA | ERSTREN | QQYHRLPLS | En_HC | 0.52 | 6 of 6
KSSWSVLYESRNKNSVA | WASSRCS | QQYHRLPLY | Ctrl | no signal | 0 of 6
KIAATSLYESGAVNSVA | QNSTRES | QQYHRLPLS | En_HC | 1.98 | 6 of 6
KMSQSWLYESRNKNSVA | NASQRES | QQYHRLPLS | GP_Gen | -0.05 | 6 of 6
IVSQLMLWGMHVKNSIA | EAQTRIN | QQYDRLPLF | En_Gen | 1.81 | 1 of 6
HMSMLTLQGMRHRNSVA | QMTTRVN | QQYDHLPLS | En_Gen | 2.21 | 5 of 6
KVSQSVLRESRNKNSVA | WASTRES | QQYHRLPLS | Ctrl | 0.80 | 6 of 6
KLWQSELYESRNKNSVA | WASTPES | QQYHRLPLS | Ctrl | no signal | 0 of 6
KLSFSNGYEDRNKNSVA | QASTRLM | QQYHRLPLS | GP_Gibbs | 0.19 | 6 of 6
KSSQEVNYPSFNKNSVA | WASTRES | QQYHRLPLS | Ctrl | 2.03 | 4 of 6
HMSMLTLMGSRNRNSVA | QMTTREN | QQYDRLPLI | En_Gen | 1.29 | 6 of 6
KMSQLQLYEWRNFNSVA | NASYRES | QQYHRLPLS | GP_Gibbs | 0.37 | 6 of 6
KLQQSVLYESRMKNSVA | GASTRES | QQYHRLPLS | GP_Gen | -0.53 | 6 of 6
KLQQSHLYESRNKNSVA | NASQRLS | QQYHRLPLS | GP_Gen | 0.38 | 6 of 6
KLSQSVLYQMEMKNSVA | QAVTRMS | QQYHRLPLS | GP_Gibbs | 0.27 | 6 of 6
NIYQAMHELMQKKDNVA | DVTERGN | QQYFRLPLS | En_Gen | 0.26 | 6 of 6
KSEQSVLFESRNHNSVA | GAGTREW | QQYARLPLS | Ctrl | 0.17 | 6 of 6
KGMGSMLYESRNENSVA | NASQRES | QQYHRLPLS | GP_Gibbs | 0.56 | 6 of 6
KSSEVYLYESRNKNSVA | GASTRES | QQYHRLPLS | GP_HC | -0.37 | 6 of 6
KVSEFMRGLMKKKDSIA | DNDTRNS | QQYDRLPLS | En_Gen | 2.41 | 6 of 6

The last 3 entries again:

CDR-L1 | CDR-L2 | CDR-L3 | group | log10 Kd (nM), mean | replicates with signal
KGMGSMLYESRNENSVA | NASQRES | QQYHRLPLS | GP_Gibbs | 0.56 | 6 of 6
KSSEVYLYESRNKNSVA | GASTRES | QQYHRLPLS | GP_HC | -0.37 | 6 of 6
KVSEFMRGLMKKKDSIA | DNDTRNS | QQYDRLPLS | En_Gen | 2.41 | 6 of 6

Of ten entries with the parent sequence, four were seen in most replicates (averages 0.34 to 2.37), three in one and three in none, so single entries are noisy. In the paper, a design with two or fewer of six values counts as a poor binder. As a blank, each scFv also met three strains without target: over all light chain designs, 4% of these pairings were detected, typically at 2.64 and seldom below 1.59.

The measurements come from Li et al. 2023 (doi:10.1038/s41467-023-39022-2) through the FLAb antibody collection.